Data reported in PubChem BioAssay AID1359 (The Scripps Research Institute Molecular Screening Center, 2008).
The entries are a selection whose mix differs from that of the whole data set. The source made the active and inactive calls. Rule as the data show it: active = activation above about 27%; inactive = the rest.

Chains of the proteins cited; added tags and fusions are not shown.
UniProt P49146, whole entry: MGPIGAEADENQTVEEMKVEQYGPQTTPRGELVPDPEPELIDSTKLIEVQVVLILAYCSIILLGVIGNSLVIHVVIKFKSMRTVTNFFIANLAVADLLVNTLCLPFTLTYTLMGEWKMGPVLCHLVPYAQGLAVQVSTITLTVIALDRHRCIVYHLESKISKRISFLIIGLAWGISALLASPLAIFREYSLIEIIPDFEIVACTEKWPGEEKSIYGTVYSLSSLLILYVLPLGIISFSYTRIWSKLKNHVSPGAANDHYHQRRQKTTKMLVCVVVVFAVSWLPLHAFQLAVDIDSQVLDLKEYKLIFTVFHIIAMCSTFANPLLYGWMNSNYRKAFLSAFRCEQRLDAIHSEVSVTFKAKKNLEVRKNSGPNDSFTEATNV

target: Neuropeptide Y receptor type 2 (Homo sapiens) (UniProt P49146); assay: human Y2 receptor positive modulation or activation – cell-based, primary screen (AID 1359); conditions: cells expressing NPY-Y2, potentiator/agonist read-out; at 3.6 µM; active compounds read high;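 also: cells stimulated with NPY near EC25 plus isoproterenol at EC100; 0% = vehicle plus submaximal agonist and 100% = vehicle plus saturating agonist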

| SMILES | activation |
| --- | --- |
| Cc1ccc(OCC(C)C)c(CN(CCCl)CCCl)c1 | inactive: -15.4% |
| CCOc1ccc(C)cc1CN(CCCl)CCCl | inactive: -11.7% |
| COc1ccc(NC2CCN(CCc3ccccc3)CC2)c(OC)c1 | inactive: 1.94% |
| O=C(NCC1(N2CCOCC2)CCCCC1)c1cc2ccccc2o1 | inactive: 4.61% |
| CCOC(=O)N1CCC(Nc2ccc(OC)cc2)CC1 | inactive: 8.9% |
| N#CC1(Nc2ccccc2)CCN(Cc2ccccc2)CC1 | inactive: -7.35% |
| O=C(OC1CN2CCC1CC2)C1c2ccccc2Oc2ccccc21 (centres undefined) | inactive: -28.9% |
| COc1ccc(C(=O)NCC2(N3CCCCC3)CCCCC2)c(OC)c1OC | active: 50.9% |
| CN1CCC(Nc2cccc(F)c2)CC1 | inactive: -3.17% |
| COc1ccc(CN(CCCl)CCCl)cc1Cl | inactive: -16.3% |
| CN(C)c1cccc(C(=O)NCC2(N3CCCCC3)CCCCC2)c1 | inactive: 9.16% |
| CC(C)c1ccc(NC2CCN(C(=O)OC(C)(C)C)CC2)cc1 | inactive: 0.65% |
| COc1ccc(NC2CCN(C(=O)OC(C)(C)C)CC2)cc1 | inactive: -2.65% |
| CN1CCN(CCOC(=O)C(O)(c2ccccc2)c2ccccc2)CC1 | inactive: 10.2% |
| O=C(NCC1(N2CCOCC2)CCCCC1)c1cc(=O)[nH]c2ccccc12 | inactive: -16.3% |
| O=C(NCC1(N2CCCCC2)CCCCC1)c1cccc([N+](=O)[O-])c1 | inactive: -6.1% |
| N#CC1(Nc2ccccc2)CCN(CCc2ccccc2)CC1 | inactive: 0.2% |
| c1ccc(CN2CCC(Nc3ccccc3)CC2)cc1 | inactive: 7.78% |
| N#Cc1ccc(C(=O)NCC2(N3CCCCC3)CCCCC2)cc1 | inactive: -12.8% |
| N/C(=N\O)c1c(N)no[n+]1[O-] | inactive: -8.16% |
| O=C(OC1CN2CCC1CC2)C1c2ccccc2C=Cc2ccccc21 (centres undefined) | inactive: 3.84% |
| COc1ccc(C(=O)NCC2(N3CCOCC3)CCCCC2)cc1OC | inactive: -14% |
| CCC(CO)(C(=O)OC1CN2CCC1CC2)c1ccccc1 (centres undefined) | inactive: 15.1% |
| COc1cc(OC)cc(C(=O)NCC2(N3CCOCC3)CCCCC2)c1 | inactive: -3.4% |
| CCCOc1ccc(C)cc1CN(CCCl)CCCl | inactive: -2.69% |
| CCOc1ncccc1C(=O)NCC1(N2CCOCC2)CCCCC1 | inactive: -7.41% |
| CC(C)(C)OC(=O)N1CCC(Nc2ccccc2)CC1 | inactive: 6.19% |
| CCN1CCC(Nc2cccc(F)c2)CC1 | inactive: -16.1% |
| CN(C)c1ccc(C(=O)NCC2(N3CCCCC3)CCCCC2)cc1 | inactive: -10.1% |
